Target: Akt1 (Homo sapiens, UniProt P31749)
Assay: Akt1 kinase assay (33P phosphorylation of biotinylated peptide, Flash plates)
Format: biochemical
Settings: read-out: IC50 rating (AKT1 inhibition)
Source text: The assay described below measures the phosphorylation of a biotinylated peptide by active recombinant Akt1 and other kinase isoforms. The biotinylated peptide contains a consensus sequence derived from Akt substrate Gsk3 (Glycogen synthase kinase 3). The ^33P-labeled peptide substrate was captured by streptavidin-coated Flash plates.
Active recombinant Akt1 was expressed in Sf9 insect cells and purified as described by Kumar et al., Biochim. Biophys. Acta. Jun. 15, 2001, 1526(3), 257-268. Biotinylated peptide of the sequence Bio-ahx-RPRAASF was purchased from Syn Pep (Dublin, Calif., USA).
Cloning and Expression of Human Akt1 Sf9 Cells
Human Akt1 cDNA was amplified from a marathon-ready human lung cDNA library (Clonetech) using nested oligo primers as described below. The first round of amplification was carried out using the following primers; Akt1F1 ([…]) and Akt1R1 (TCCATC […]) and for the second round amplification, the primers of the following sequence were used; Akt1F2 (GGATCCTCGG […]) and AKT1R2 (GGTACCATCGTC […]). The PCR product was subcloned into pCRScript plasmid as a BamHI/KpnI fragment and the sequence of the cDNA was confirmed by DNA sequencing. This plasmid was used as a template for reamplification of Akt1 using appropriate primers for subcloning into pBlueBaHis2B into BamH1/EcoRI sites to generate an in frame fusion to (His)6 tag and an anti-Xpress antibody epitope tag at the N-terminus. This construct was sequenced to verify the junction sequences and used for generating a recombinant baculovirus. Growth of the recombinant virus, amplification and determination of viral titer were carried out according to the instructions from the manufacturer (InVitrogen, CA).
Purification of Akt1 from Sf9 Cells
Viral stocks were used to infect large scale Sf9 cells at a multiplicity of infection (MOI) of 2.5. Cells were maintained at 27° C. for 60 h and okadaic acid was added to the cultures to a concentration of 50 nM. Cells were harvested 4 h hours later by centrifugation at 1200 rpm for 30 min followed by freezing at −80° C. until further use. All purification steps were carried out at 4° C. Whole cell pellets were suspended in buffer A (20 mM sodium phosphate buffer pH 7.8, 500 mM NaCl, 1 mM sodium vanadate, 5 mM sodium fluoride, 40 mM β-glycerophosphate, 10 mM imidazole and protease inhibitor cocktail) and lysed using a microfluidizer. The cell extract was centrifuged at 16,000×g for 10 min to remove the debris and directly loaded onto Ni-NTA Superflow resin using a FPLC pump operated at 1 ml/min. The column was washed once with buffer A, once with wash buffer B (20 mM sodium phosphate pH 6.0, 1 mM sodium vanadate, 5 mM sodium fluoride and protease cocktail) and once with wash buffer B containing 0.05% Tween-20 followed by washing with buffer A until OD260 returned to basal level. Proteins were eluted with buffer A containing 200 mM imidazole. Fractions were analyzed by electrophoresis on 10% denaturing polyacrylamide gels and fractions containing 85% pure protein band at 60 KDa were pooled and dialyzed against buffer C (20 mM Tris-HCl pH 7.5, 0.5 mM EDTA,-2 mM DTT, 145 mM NaCl, 0.1 mM sodium vanadate, 5 mM sodium fluoride, 10 mM, β-glycerophosphate and 20% glycerol). Purified protein was stored as aliquots at −80° C. Protein concentrations were determined using BCA protein assay reagent A (Catalog #23228). To examine the identity of the proteins, 2 μg of purified protein was electrophoresed on SDS-polyacrylamide gels and stained with coomassie blue dye or transferred to nitrocellulose membrane and probed with anti-Akt and anti-phospho-specific Akt antibodies using enhanced chemiluminescence (ECL) reagent according to the protocol described by the manufacturer (Amersham).
The kinase assay was performed in 96 well plates at room temperature. Assay solutions and plates were preincubated at room temperature for 5 min. […]

Amino acid sequences for entries named in this document (tags omitted).
UniProt P31749, whole entry: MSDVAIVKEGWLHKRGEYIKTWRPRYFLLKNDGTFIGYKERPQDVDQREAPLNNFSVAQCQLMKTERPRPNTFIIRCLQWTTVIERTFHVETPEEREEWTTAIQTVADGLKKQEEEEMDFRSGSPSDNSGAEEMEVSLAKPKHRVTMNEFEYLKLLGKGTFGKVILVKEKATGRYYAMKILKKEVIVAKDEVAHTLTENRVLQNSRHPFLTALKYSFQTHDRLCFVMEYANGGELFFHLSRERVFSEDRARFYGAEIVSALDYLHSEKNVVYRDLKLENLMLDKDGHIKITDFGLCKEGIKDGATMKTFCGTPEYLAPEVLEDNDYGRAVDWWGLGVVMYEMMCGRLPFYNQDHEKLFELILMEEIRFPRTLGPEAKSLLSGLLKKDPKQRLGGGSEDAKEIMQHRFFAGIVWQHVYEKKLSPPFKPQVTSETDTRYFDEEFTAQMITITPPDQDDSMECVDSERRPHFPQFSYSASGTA

| SMILES | IC50 |
| --- | --- |
| Cc1n[nH]c2ccc(-c3nnc(N)c(N4CCN[C@H](Cc5ccccc5)C4)n3)cc12 | 100 to 1000 nM |
| Cc1n[nH]c2ccc(-c3nnc(NCc4cccc(-c5ccccc5)c4)c(N4CCN[C@@H](C(C)C)C4)n3)cc12 | 100 to 1000 nM |
| Cc1n[nH]c2ccc(-c3nnc(N(Cc4cccc(F)c4)Cc4cccc(F)c4)c(N4CCN[C@@H](C(C)C)C4)n3)cc12 | > 1000 nM |
| COc1ccccc1CNc1nnc(-c2ccc3[nH]nc(C)c3c2)nc1N1CCN[C@@H](C(C)C)C1 | < 100 nM |
| Cc1n[nH]c2ccc(-c3nnc(NC(C)c4ccccc4)c(N4CCN[C@@H](C(C)C)C4)n3)cc12 (stereo partly drawn) | < 100 nM |
| Cc1n[nH]c2ccc(-c3nnc(NCc4cccc(F)c4)c(N4CCN[C@@H](C(C)C)C4)n3)cc12 | < 100 nM |
| Cc1n[nH]c2ccc(-c3nnc(NCc4ccccc4-c4ccccc4)c(N4CCN[C@@H](C(C)C)C4)n3)cc12 | < 100 nM |
| CNC1CCN(c2nc(-c3ccc4[nH]nc(C)c4c3)nnc2NCc2ccccc2)C1 (stereo not drawn) | 100 to 1000 nM |
| Cc1n[nH]c2ccc(-c3nnc(NCc4cccc([N+](=O)[O-])c4)c(N4CCN[C@@H](C(C)C)C4)n3)cc12 | 100 to 1000 nM |
| CCC[C@H]1CN(c2nc(-c3ccc4[nH]nc(C)c4c3)nnc2N)CCN1 | < 100 nM |
| COc1cccc(CNc2nnc(-c3ccc4[nH]nc(C)c4c3)nc2N2CCN[C@@H](C(C)C)C2)c1 | < 100 nM |
| Cc1n[nH]c2ccc(-c3nnc(N(Cc4cccc(Br)c4)Cc4cccc(Br)c4)c(N4CCN[C@@H](C(C)C)C4)n3)cc12 | > 1000 nM |
| Cc1n[nH]c2ccc(-c3nnc(NCc4ccccc4Cl)c(N4CCN[C@@H](C(C)C)C4)n3)cc12 | < 100 nM |
| Cc1n[nH]c2ccc(-c3nnc(NCc4cccc(Br)c4)c(N4CCN[C@@H](C(C)C)C4)n3)cc12 | < 100 nM |
| Cc1n[nH]c2c(C)cc(-c3nncc(N4CCN[C@@H](Cc5ccccc5)C4)n3)cc12 | > 1000 nM |
| Cc1n[nH]c2ccc(-c3nnc(N)c(N4CCN[C@H](C(C)C)C4)n3)cc12 | 100 to 1000 nM |
| Cc1n[nH]c2ccc(-c3nnc(N(Cc4ccccc4Cl)Cc4ccccc4Cl)c(N4CCN[C@@H](C(C)C)C4)n3)cc12 | 100 to 1000 nM |
| Cc1n[nH]c2ccc(-c3nnc(N(Cc4ccccc4-c4ccccc4)Cc4ccccc4-c4ccccc4)c(N4CCN[C@@H](C(C)C)C4)n3)cc12 | > 1000 nM |

Reference: patent US7528132B2, “Kinase inhibitors” (Schering Corporation, priority 2005, dated 2009)
